{
  "source": "patent US8529964B1",
  "about": "“Method and composition for suppression and control of citrus canker and other plant diseases” (priority 2010, dated 2013)",
  "origin": "cited, not measured here",
  "data": [
    {"substance": "copper fluoride", "values": [
      {"measurement": "water solubility (in words)", "result": "slightly water soluble"}
    ]}
  ]
}
